Reference: PMC7230162, “Syntheses and Glycosidase Inhibitory Activities, and in Silico Docking Studies of Pericosine E Analogs Methoxy-Substituted at C6” (Marine Drugs, 2020)

Chains of the proteins cited; added tags and fusions are not shown. Residues count along the entry.
UniProt C0HJB3, 563-981: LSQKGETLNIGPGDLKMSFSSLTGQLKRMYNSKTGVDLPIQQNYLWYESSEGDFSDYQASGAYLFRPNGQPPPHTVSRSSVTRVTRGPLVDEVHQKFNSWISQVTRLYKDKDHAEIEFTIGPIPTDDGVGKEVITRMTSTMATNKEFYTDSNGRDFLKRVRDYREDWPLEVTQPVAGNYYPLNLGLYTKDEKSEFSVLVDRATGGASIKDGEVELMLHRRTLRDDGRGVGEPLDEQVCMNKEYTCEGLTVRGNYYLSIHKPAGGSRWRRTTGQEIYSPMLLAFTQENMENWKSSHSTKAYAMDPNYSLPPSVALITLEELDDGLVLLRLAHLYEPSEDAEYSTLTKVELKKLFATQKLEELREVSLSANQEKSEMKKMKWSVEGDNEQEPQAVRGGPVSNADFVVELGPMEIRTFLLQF
UniProt C0HJB3, 1-562: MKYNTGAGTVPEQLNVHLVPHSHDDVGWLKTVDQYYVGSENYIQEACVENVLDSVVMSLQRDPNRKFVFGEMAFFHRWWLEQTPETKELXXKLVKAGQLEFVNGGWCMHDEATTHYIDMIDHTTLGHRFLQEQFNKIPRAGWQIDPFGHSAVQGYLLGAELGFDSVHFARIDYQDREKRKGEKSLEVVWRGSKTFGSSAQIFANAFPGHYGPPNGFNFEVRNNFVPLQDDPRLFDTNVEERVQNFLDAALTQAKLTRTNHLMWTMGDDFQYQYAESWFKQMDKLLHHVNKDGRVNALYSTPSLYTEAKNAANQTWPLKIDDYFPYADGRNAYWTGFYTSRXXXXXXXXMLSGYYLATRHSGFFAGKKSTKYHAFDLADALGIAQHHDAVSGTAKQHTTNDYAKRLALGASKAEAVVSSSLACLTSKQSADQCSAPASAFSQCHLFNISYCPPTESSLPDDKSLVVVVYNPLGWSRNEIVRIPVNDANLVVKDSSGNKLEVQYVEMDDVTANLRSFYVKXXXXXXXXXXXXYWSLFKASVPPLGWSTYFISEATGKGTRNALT

Target: T1, α-mannosidase (Jack Bean) (Canavalia ensiformis, UniProt C0HJB3)
T1 construct: purchased Sigma-Aldrich Co., LLC lot 055K7047 (catalogue number not given)
Experiment: biochemical
Protocol: Infrared (IR) spectra were recorded on a 1720X Fourier transformation-infrared (FT-IR) spectrometer (Perkin Elmer, MA, USA) or an IRAffinity-1S FT-IR spectrometer (Shimadzu, Kyoto, Japan). High-resolution mass spectra (HRMS) were recorded on a JMS-700 (2) mass spectrometer (JEOL, Tokyo, Japan). Nuclear magnetic resonance (NMR) spectra were recorded at 27 °C on 400-MR-DD2 (Agilent Technologies, CA, USA) and 600-DD2 (Agilent Technologies, CA, USA) instruments in CDCl3 or acetone-d6 using tetramethylsilane as an internal standard. Specific rotations were measured with a JASCO P-2300 spectrometer (JASCO Co., Tokyo, Japan). Liquid column chromatography was conducted on silica gel (Fuji Silysia FL-60D). Analytical thin layer chromatography (TLC) was performed on Silicagel 70 F254 plates (Wako Pure Chemical Industries, Tokyo, Japan), and compounds were detected by dipping the plates into an ethanolic solution of phosphomolybdic acid followed by heating. Microwave (MW)-aided reactions were carried out in a Biotage Initiator® reactor (PartnerTech Atvidaberg AB for Biotage Sweden AB, Uppsala, Sweden). NaBH4 and trifluoroacetic acid (TFA) were purchased from Wako Pure Chemical Industries (Wako Pure Chemical Industries, Tokyo, Japan). BF3·Et2O was purchased from Sigma-Aldrich Co., LLC (St. Lewis, MO, USA). DMP was purchased from TCI (Tokyo Chemical Industry Co., Ltd., Tokyo, Japan). […] Deoxygalactonojirimycin was purchased from Funakoshi Co., Ltd., Tokyo, Japan).
After 20 min incubation at 37 °C, the reaction was quenched by addition of Na2CO3 solution (0.5 M, 100 μL). The amount of liberated p-nitrophenol was measured colorimetrically at 400 nm (optical density at 400 nm: ODtest).
Assays of β-glucosidase, α-mannosidase, β-mannosidase, and β-galactosidase inhibitory activities were carried out as above using p-nitrophenyl-β-D-glucopyranoside, p-nitrophenyl-α-D-mannopyranoside, p-nitrophenyl-β-D-mannopyranoside, and p-nitrophenyl-β-D-galactopyranoside as substrates.

Row | Structure (SMILES) | IC50 [mM]
1 | COC(=O)C1=CC(O)C(O)C(O)C1OC1C(OC)C(C(=O)OC)=CC(O)C1O (single isomer, unassigned; (-)) [(−)-9] | > 7.8
2 | COC(=O)C1=CC(O)C(O)C(O)C1OC1C(OC)C(C(=O)OC)=CC(O)C1O (single isomer, unassigned; (-)) [(−)-24] | > 7.8
3 | COC(=O)C1=C[C@H](O)[C@H](O)[C@H](O[C@H]2C(C(=O)OC)=C[C@@H](O)[C@@H](O)[C@@H]2O)[C@@H]1OC [(−)-18] | > 7.8
4 | COC(=O)C1=C[C@@H](O)[C@@H](O)[C@@H](O[C@H]2C(C(=O)OC)=C[C@@H](O)[C@@H](O)[C@@H]2O)[C@@H]1OC [(−)-21] | > 7.8
5 | OC[C@H]1NC[C@H](O)[C@@H](O)[C@@H]1O [Deoxynojirimycin (DNJ), 1-Deoxynojirimycin, reference compound] | > 7.8
